Assay: Microsomal metabolic stability, human liver microsomes
Conditions: HLM 0.5

C[C@]12CC[C@H]3[C@@H](CCC4=CC(=O)CC[C@@]43C)[C@@H]1CC[C@@H]2O [Testosterone]
T1/2: 12.9 min
